Measured values as given in paper PMC12297423, “Dual α-amylase and α-glucosidase inhibition by 1,2,4-triazole derivatives for diabetes treatment” (Scientific Reports, 2025).

Biological target: T1, porcine pancreatic α-amylase (Sus scrofa, UniProt P00690)
T1 sequence (P00690 16-511): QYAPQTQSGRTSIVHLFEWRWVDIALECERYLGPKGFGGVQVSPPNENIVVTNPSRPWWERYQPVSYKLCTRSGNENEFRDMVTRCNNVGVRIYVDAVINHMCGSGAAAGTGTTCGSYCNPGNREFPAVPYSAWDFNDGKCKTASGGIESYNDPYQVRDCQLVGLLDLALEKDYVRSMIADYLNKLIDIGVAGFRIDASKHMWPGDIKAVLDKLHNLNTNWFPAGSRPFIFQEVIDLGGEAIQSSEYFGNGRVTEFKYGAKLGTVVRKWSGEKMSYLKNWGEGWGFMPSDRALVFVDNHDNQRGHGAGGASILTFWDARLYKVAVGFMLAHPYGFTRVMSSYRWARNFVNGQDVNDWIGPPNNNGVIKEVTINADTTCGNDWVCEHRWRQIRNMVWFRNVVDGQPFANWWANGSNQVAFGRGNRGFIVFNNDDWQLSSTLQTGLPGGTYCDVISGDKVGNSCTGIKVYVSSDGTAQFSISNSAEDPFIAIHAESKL
Experiment: In vitro α-amylase inhibition assay (BioVision kit / modified DNSA method)
Conditions: Table 1S

C[C@H]1O[C@H](O[C@H]2[C@H](O)[C@@H](O)[C@@H](O[C@H]3[C@H](O)[C@@H](O)C(O)O[C@@H]3CO)O[C@@H]2CO)[C@H](O)[C@@H](O)[C@@H]1N[C@H]1C=C(CO)[C@@H](O)[C@H](O)[C@H]1O (stereo partly shown) [Acarbose, reference compound]
%inh α-amylase (conc 0.1 (µg/mL)): 44.3% | %inh α-amylase (conc 1 (µg/mL)): 62.8% | %inh α-amylase (conc 10 (µg/mL)): 84.2% | %inh α-amylase (conc 100 (µg/mL)): 93.4%
